Values of other authors as cited in PMC2808703 (Bioorganic & medicinal chemistry, 2009).

Test system: mouse xenograft model of pancreatic cancer
Details: cited from earlier work

In the case of CCCCCCCCCCCCc1ccc(S(=O)(=O)Nc2nncs2)cc1 [Compound 14], the “Antitumor activity in vivo” value is listed as “significant antitumor activity with cessation of tumor growth”.
